Measured values taken from US20100125053A1, “Allosteric Modulation of the Dopamine Transporter Protein for the Treatment of HIV-1 Induced Neurologic Dysfunction” (priority 2008, published 2010).

By UniProt entry, the sequences of proteins in these tests, tags left out.
UniProt P23977, whole entry: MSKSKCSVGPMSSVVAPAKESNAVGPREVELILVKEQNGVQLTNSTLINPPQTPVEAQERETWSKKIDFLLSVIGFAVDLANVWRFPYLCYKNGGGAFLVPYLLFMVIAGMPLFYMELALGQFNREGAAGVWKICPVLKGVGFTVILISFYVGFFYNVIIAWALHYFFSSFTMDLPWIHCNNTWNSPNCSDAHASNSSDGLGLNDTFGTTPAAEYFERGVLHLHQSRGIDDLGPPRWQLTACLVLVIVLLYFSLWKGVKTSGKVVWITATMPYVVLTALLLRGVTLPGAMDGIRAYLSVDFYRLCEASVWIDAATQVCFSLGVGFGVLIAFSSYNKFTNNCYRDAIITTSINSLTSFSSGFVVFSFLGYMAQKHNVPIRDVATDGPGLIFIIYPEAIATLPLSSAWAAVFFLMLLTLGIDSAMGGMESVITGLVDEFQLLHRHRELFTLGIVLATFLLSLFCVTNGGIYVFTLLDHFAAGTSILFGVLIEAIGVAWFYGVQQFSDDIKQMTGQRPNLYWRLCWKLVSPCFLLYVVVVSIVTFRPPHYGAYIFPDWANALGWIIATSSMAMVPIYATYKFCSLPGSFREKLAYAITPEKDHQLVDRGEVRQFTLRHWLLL

Target: T1, DAT protein (Rattus norvegicus, UniProt P23977)
T1 construct: from tissue; host or cells: striatal synaptosomes from adult male Sprague-Dawley rats
Settings: read-out: Kd value of the radioligand for [3H]GBR 12935 binding

Question: `c1ccc(CCCN2CCN(CCOC(c3ccccc3)c3ccccc3)CC2)cc1` [[^3H]GBR 12935, GBR 12935 [propylene-2,3-^3H]] was tested. Which Kd did it give?
Answer: 1.5 nM
